The data set is described as follows: Pharmacokinetics of 29 QLQX components in rat plasma by HPLC-MS/MS after intragastric QLQX. The conditions noted are these: QLQX suspension […] intragastrically, mean ± SD.

Turning to Hydroxysafflor yellow A, the Tmax worked out at 0.17 ± 0.00 and the t1/2 came out at 5.03 ± 2.00.
